Earlier results in article PMC10527924 (Toxicology in vitro : an international journal published in …, 2023).

Details: not measured for this paper; no reference given; cited from earlier work

Question: For `C[C@]12CC[C@H]3[C@@H](CCC4=CC(=O)CC[C@@]43C)[C@@H]1CC[C@@H]2O` [testosterone], which “Log Kow (n-octanol-water partition coefficient)” value is on record?
Answer: The value was 3.32.
